Measurements reported in PubChem BioAssay AID889 (National Center for Advancing Translational Sciences (NCATS), 2007).
The list shows a part of the results, in another mix than the full data. Results filed as inconclusive are left out. Calls of active or inactive are those of the source. Calls come from the whole dose curve; as a rule, active = well fitted inhibition curve with a large enough effect in the main read-out, with a control signal flat (not every such curve was filed as active); inconclusive = small, poorly fitted or top-dose-only effect, or a change in a side signal; inactive = flat fitted curve, though single readings scatter.

Protein sequences, listed by entry. Tags and fused reporters are not part of them. Residues count along the entry.
UniProt P55210, 24-198 limits assumed: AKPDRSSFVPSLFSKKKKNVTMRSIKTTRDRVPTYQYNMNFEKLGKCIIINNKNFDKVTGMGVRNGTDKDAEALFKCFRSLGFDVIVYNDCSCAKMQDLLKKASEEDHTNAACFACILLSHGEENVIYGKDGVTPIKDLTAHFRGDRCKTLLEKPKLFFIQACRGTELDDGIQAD
UniProt P55210, 207-303 limits assumed: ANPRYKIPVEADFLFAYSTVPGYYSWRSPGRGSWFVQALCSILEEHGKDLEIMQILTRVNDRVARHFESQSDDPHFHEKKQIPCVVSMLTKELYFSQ

These compounds were tested against Caspase-7 (Homo sapiens) (UniProt P55210) (assay: qHTS Assay for Allosteric/Competitive Inhibitors of Caspase-7). Conditions: recombinant caspase-7, Ac-DEVD-AFC fluorescence rate; at 57.5 µM (top of the series) unless noted.
Source text: NIH Molecular Libraries Screening Centers Network [MLSCN]
NIH Chemical Genomics Center [NCGC]
PI Name: Dr. James Wells,
Dr. Enrique Perez-Paya, Dr.Janice Williams, Dr. Dennis Wolan, a person
The caspases (Cysteine Aspartyl Protease) comprise a related family of 14 dimeric proteases that are critical mediators of apoptosis (programmed cell death) and inflammation. The caspases represent an important class of drug targets for stroke, ischemia, cancer and inflammatory diseases. […] One goal of this project was to identify compounds that act as allosteric inhibitors via stabilizing the procaspase form of the enzyme. Previous work in Well's laboratory has shown that such allosteric inhibitors can be identified and these act by binding at the dimer interface of enzyme (Hardy, Lam et al., 2004).
The biochemical assay was configured using purified caspase 7 at a high enzyme concentration to promote formation of the homodimers and thus facilitate the identification of allosteric inhibitors. The overall goal was to identify reversible inhibitors with better drug-like properties than the currently available set of aspartyl-containing peptidomimetics that covalently bind the active site. Caspase 7 was assayed using the profluorescent substrate Ac-DEVD-AFC. After initiation of the assay with substrate the plates were rapidly read using an automated robotic system (Kalypsys, Inc.) to maintain consistent timing. A kinetic mode of detection was used where the initial rate was collected (estimated final product formation was ~10%). Compounds were screened as a concentration-titration series that ranged from 57 uM to 0.7 nM. Below is the protocol used for caspase 7.
NCGC Assay Protocol Summary:
Caspase 7 was prepared in buffer (50 mM HEPES pH 7.5, 50 mM KCl, 200 mM NaCl, 10 mM DTT, 0.1% CHAPS) at a concentration of 66.6 nM and 3 uL was dispensed to all wells using black solid Kalypsys 1536-well plates. 20 nL of DMSO containing compounds was added using a pin-tool (Kalypsys Inc.) to columns 5-48. Then 20 nL of DMSO solution from a control plate was added to columns 1-4. Controls were: Column 1, 16 point titration with each concentration in duplicate (1:1 dilutions in DMSO; final starting concentration was 57 uM) of the caspase 7 inhibitor Ac-DEVD-CHO (Alexis Biochemicals); Column 2, a 16 point titration with each concentration in duplicate of the free AFC fluorophore prepared in DMSO (Alexis Biochemicals), final starting was 40 uM; Column 3 neutral (DMSO only) control; Column 4: DMSO alone, to serve as a negative control (no substrate was added). Then 1 uL of 20 uM the substrate Ac-DEVD-AFC (Alexis Biochemicals) prepared in the same buffer was dispensed to all wells except columns 2 and 4 and the plates were immediately transferred (< 1 min) to the Viewlux. The plates were then exposed using 405 nm excitation/520 nm emission filters for 4 sec and read at 20 sec intervals for 3 min. Final enzyme concentration was 50 nM and the final substrate concentration was 5 uM.
Concentration-response curves were fitted to the data calculated from slope of the linear regression of fluorescent intensity versus time (the rate). The concentration-effect curves were then classified based on curve quality (r2), response magnitude and degree of measured activity. […] Inconclusive compounds had appreciable concentration-dependent effects on both the measured rate and the interpolated basal fluorescence intensity at the start of the reaction but where the basal fluorescent intensity was marginal (e.g. < 10-fold). Inconclusive compounds also encompass highly fluorescent compounds (>100-fold increases in fluorescent intensities values relative to controls) where artificial concentration-dependent decreases in the rate occurred at high compound concentrations due to fluorescent interferences.
Keywords: Caspase 7, proteases, profluorescent, MLSMR, MLSCN, NIH Roadmap, qHTS, NCGC
Note: % of control where 0% means no effect.

**Q.** For NC1CCCCC1.NP(=O)(O)N(CCCl)CCCl, which activity change, negative = inhibition is on record?
**A.** Its activity change, negative = inhibition is inactive: -1.17% [at 11.5 µM].

**Q.** With CCOP(=O)(Cl)Cl as the compound, how does the activity change, negative = inhibition read?
**A.** Its activity change, negative = inhibition is inactive: -0.603%.

**Q.** How did the activity change, negative = inhibition turn out when N#CC1(Nc2ccccc2)CCN(CCc2ccccc2)CC1 was run?
**A.** Its activity change, negative = inhibition is inactive: 0.283%.

**Q.** Which activity change, negative = inhibition does the source give for COc1ccc(NC2CCN(CCc3ccccc3)CC2)c(OC)c1 here?
**A.** Its activity change, negative = inhibition is inactive: 1.03%.

**Q.** Which activity change, negative = inhibition does the source give for O=C(OC1CN2CCC1CC2)C1c2ccccc2Oc2ccccc21 (stereo unspecified) here?
**A.** The activity change, negative = inhibition was inactive: 1.24%.

**Q.** With CCC(CO)(C(=O)OC1CN2CCC1CC2)c1ccccc1 (stereo unspecified) as the compound, how does the activity change, negative = inhibition read?
**A.** The activity change, negative = inhibition was inactive: 0.277%.

**Q.** O=C(O)C1(Nc2ccccc2)CCN(Cc2ccccc2)CC1 was tested. Which activity change, negative = inhibition did it give?
**A.** The activity change, negative = inhibition was inactive: 2.4% [at 11.5 µM].

**Q.** How did the activity change, negative = inhibition turn out when CCOc1ncccc1C(=O)NCC1(N2CCOCC2)CCCCC1 was run?
**A.** The activity change, negative = inhibition was inactive: 6.22%.

**Q.** For Fc1ccccc1NC1CCN(Cc2ccccc2)CC1, which activity change, negative = inhibition is on record?
**A.** Its activity change, negative = inhibition is inactive: -1.36%.

**Q.** For ClCCOP(OCCCl)OCCCl, which activity change, negative = inhibition is on record?
**A.** The activity change, negative = inhibition was inactive: 0.163%.

**Q.** With N/C(=N\O)c1c(N)no[n+]1[O-] as the compound, how does the activity change, negative = inhibition read?
**A.** Its activity change, negative = inhibition is inactive: -1.38%.
